# In patent publication EP4825844A1, “NAV1.8 INHIBITOR COMPOUND, SALT THEREOF, POLYMORPH THEREOF, AND USE THEREOF” (dated 2026):
# Where a name gives a salt, the structure may show the parent alone.
# Key:
# [1] = test system: Rats with Spinal Nerve Ligation; test: Rat spinal nerve ligation neuropathic pain model, Von-Frey mechanical pain threshold; settings: before modeling and administration
# Excerpt: Male SD rats weighing 180-220 g were anesthetized and placed in a prone position on the surgical table. An incision was made along the spine near the animal's hip bone to separate the fascia and muscle. The L5 transverse process was carefully bitten off with forceps, and the L5 nerve was separated using a glass dissecting needle. The L5 nerve was ligated with a 5-0 ligature. The muscle and skin were sutured, and the area was disinfected with iodophor. Fourteen days after modeling, the animals were divided into different groups (10 animals per group) and orally administered different compounds via gavage. The mechanical pain threshold of the animals was measured using Von-Frey filaments at different time points after administration. Specific dosing regimens and detection time points are detailed in Table B-3 below.
# Mechanical pain threshold detection method: The test animal was continuously stimulated on the plantar surface of the hind paw to be tested with a Von-Frey filament until the filament bent, and the paw withdrawal response of the animal was observed. The test animal was stimulated sequentially with filaments of increasing gram force, from the smallest to the largest. […] The first filament gram force that elicited 3 or more positive responses was recorded as the pain threshold for that animal (each animal was tested three times, and the average value was taken). […]
# [2] = test system: Incisional Pain Model Rats; test: Rat incisional pain model, Von Frey mechanical pain threshold; settings: before modeling and administration
# Excerpt: Male SD rats weighing 200-250 g were anesthetized and fixed in a prone position. The plantar surface of the lateral hind paw was extended upward, and the toes were fixed with surgical tape, followed by disinfection. A longitudinal incision of approximately 1 cm was made in the skin and fascia using a scalpel, starting 0.5 cm from the heel towards the toes on the animal's plantar surface. After lifting the flexor digitorum brevis muscle with surgical curved forceps, a longitudinal incision was made in the belly of the muscle using a scalpel, without completely transecting the muscle. The skin was sutured and disinfected. On the second day after modeling, the animals were divided into different groups, with 8 animals per group, and were orally administered different compounds by gavage. The mechanical pain threshold of the animals was measured using Von Frey filaments at different time points after administration. […]
# Mechanical pain threshold detection method: The test animal was continuously stimulated on the plantar surface of the hind paw to be tested with a Von-Frey filament until the filament bent, and the paw withdrawal response of the animal was observed. […] The first filament gram force that elicited 3 or more positive responses was recorded as the pain threshold for that animal (each animal was tested three times, and the average value was taken). […]
# [3] = Hygroscopicity by dynamic vapor sorption (DVS); settings: for moisture adsorption: 25 °C/80% RH
# Method: Dynamic vapor sorption (DVS) curves were acquired on a DVS IntrInsic from Surface Measurement Systems (SMS). The relative humidity at 25 °C was corrected with the deliquescence points of LiCl, Mg(NO3)2, and KCl. Table A-3. DVS test parameters
# Hygroscopicity evaluation of free crystal form A and crystal form A of maleate was performed using a dynamic vapor sorption (DVS) instrument. The percentage changes in mass of the samples when the humidity changed (0% RH to 95% RH) at a constant temperature of 25 °C were collected.
# [4] = Solid state stability (XRPD and HPLC); settings: for Purity (area%): HPLC; for Relative to starting (%): HPLC purity; for Crystal form: XRPD after storage, merged cell for 25 °C/60% RH/open 1 week, 40 °C/75% RH/open 1 week, 80 °C/sealed 1 day
# Method: (§1) In the study, the purity test, dynamic solubility test, and stability test were performed using a Waters H-Class ultra performance liquid chromatography system, and the ionic salt molar ratio test was performed using ion chromatography. Table A-4. High performance liquid chromatography test conditions
# Free crystal form A and the maleate salt crystal form A were placed at 80 °C/closed for one day and at 25 °C/60% RH and 40 °C/75% RH/open for one week, respectively. The physical and chemical stability of the samples were tested by XRPD and HPLC. […] Table2-6 Summary of Solid State Stability Evaluation
# [5] = Dynamic solubility at 37 °C in H2O, SGF, FaSSIF and FeSSIF; settings: for S: solubility: feeding concentration 10 mg/mL
# Method: as §1
# 100 mg of NaCl and 50 mg of Triton X-100 were weighed into a 50 mL volumetric flask and then completely dissolved by addition of purified water. 816 µL of 1 M hydrochloric acid was added, and the pH was adjusted to 1.8 with 1 M hydrochloric acid or 1 M NaOH solution. The mixed solution was brought to the volume by addition of purified water.
# 340 mg of anhydrous NaH2PO4 and 620 mg of NaCl were weighed and added into a 100 mL volumetric flask, and then completely dissolved by addition of purified water. 55.44 µL of a 50% NaOH solution was then added, and the pH was adjusted to 6.5 with 1 M hydrochloric acid or 1 M NaOH solution. The mixed solution was brought to the volume by addition of purified water. Subsequently, 110 mg of SIF powder was weighed and added into a 50 mL volumetric flask and completely dissolved in the solution described above, and the mixed solution was brought to the volume.
# 0.82 mL of glacial acetic acid and 1.18 g of NaCl were added to a 100 mL volumetric flask and completely dissolved by addition of purified water. 528 µL of a 50% NaOH solution was then added, the pH was adjusted to 5.0 with 1 M hydrochloric acid or 1 M NaOH solution, and the mixed solution was brought to the volume by addition of purified water. Subsequently, 560 mg of SIF powder was weighed into a 50 mL volumetric flask and completely dissolved in the solution described above, and the mixed solution was brought to the volume.
# Solids at a feeding concentration of 10 mg/mL (calculated based on free crystal form) were rotationally mixed with corresponding vehicles at 37 °C. The solubility of each sample in H2O, SGF, FaSSIF, and FeSSIF was determined at different time points (1 h, 2 h, 4 h, and 24 h). After sampling at each time point, the samples were centrifuged (at 10000 rpm) and filtered (through 0.45 µm PTFE), the HPLC concentrations and pH values of the filtrates were determined, and the centrifuged solid samples were subjected to XRPD analysis. […] Table 2-5. Summary of dynamic solubility test results at 37 °C
structure (smiles),measurement,setting,value
CC(C)C[C@H](CN)CC(=O)O,Mechanical Pain Threshold (Mean±SD) Baseline Before Modeling,[1]; 30mpk group,13.6 ± 2.7 g
same,Mechanical Pain Threshold (Mean±SD) Baseline Before Modeling,[2]; 30mpk group,12.7 ± 1.7 g
O=C(Nc1cnc[n+]([O-])c1)c1cc(Cl)c(Cl)cc1Oc1ccc(OC(F)(F)F)cc1,Mechanical Pain Threshold (Mean±SD) Baseline Before Modeling,[1]; 100mpk group,13.6 ± 1.7 g
same,Mechanical Pain Threshold (Mean±SD) Baseline Before Modeling,[2]; 100mpk group,12.6 ± 1.7 g
O=C(Nc1cnc[n+]([O-])c1)c1cc(Cl)c(Cl)cc1Oc1ccc(OC(F)(F)F)cc1 [Crystal form A of maleate],moisture adsorption,[3],0.224%
same,Purity (area%),"[4]; 25 °C/60% RH/open, 1 week",99.90 area%
same,Relative to starting (%),"[4]; 25 °C/60% RH/open, 1 week",100.0%
same,Purity (area%),"[4]; 40 °C/75% RH/open, 1 week",99.95 area%
same,Relative to starting (%),"[4]; 40 °C/75% RH/open, 1 week",100.0%
same,Purity (area%),"[4]; 80 °C/sealed, 1 day",99.93 area%
same,Relative to starting (%),"[4]; 80 °C/sealed, 1 day",100.0%
same,Crystal form,[4],C rystal form A of maleate
O=C(Nc1cnc[n+]([O-])c1)c1cc(Cl)c(Cl)cc1Oc1ccc(OC(F)(F)F)cc1 [Free Crystal Form A],S: solubility,"[5]; FaSSIF, 1 h",13 µg/mL
same,S: solubility,"[5]; FaSSIF, 2 h",14 µg/mL
same,S: solubility,"[5]; FaSSIF, 4 h",15 µg/mL
same,S: solubility,"[5]; FaSSIF, 24 h",15 µg/mL
same,S: solubility,"[5]; FeSSIF, 1 h",51 µg/mL
same,S: solubility,"[5]; FeSSIF, 2 h",53 µg/mL
same,S: solubility,"[5]; FeSSIF, 4 h",55 µg/mL
same,S: solubility,"[5]; FeSSIF, 24 h",59 µg/mL
same,S: solubility,"[5]; H2O, 1 h",2 µg/mL
same,S: solubility,"[5]; H2O, 2 h",1 µg/mL
same,S: solubility,"[5]; H2O, 4 h",2 µg/mL
same,S: solubility,"[5]; H2O, 24 h",2 µg/mL
same,S: solubility,"[5]; SGF, 1 h",12 µg/mL
same,S: solubility,"[5]; SGF, 2 h",12 µg/mL
same,S: solubility,"[5]; SGF, 4 h",13 µg/mL
same,S: solubility,"[5]; SGF, 24 h",13 µg/mL
same,crystal form after the dynamic solubility test,"[5]; XRPD of centrifuged solids, H2O, SGF, FaSSIF, FeSSIF",remained unchanged
same,hygroscopicity,"[3]; 25 °C, 0% RH to 95% RH",almost no hygroscopicity
same,moisture adsorption,[3],0.1698%
same,Purity (area%),"[4]; 25 °C/60% RH/open, 1 week",99.35 area%
same,Relative to starting (%),"[4]; 25 °C/60% RH/open, 1 week",100.0%
same,Purity (area%),"[4]; 40 °C/75% RH/open, 1 week",99.37 area%
same,Relative to starting (%),"[4]; 40 °C/75% RH/open, 1 week",100.0%
same,Purity (area%),"[4]; 80 °C/sealed, 1 day",99.45 area%
same,Relative to starting (%),"[4]; 80 °C/sealed, 1 day",100.1%
same,Crystal form,[4],Free Crystal Form A
